Measurements as given in PubChem BioAssay AID493087 (The Scripps Research Institute Molecular Screening Center, 2011).
The entries are a selection whose mix differs from that of the whole data set. The source made the active and inactive calls.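 The calls were made as follows: active = activation above the mean of all tested compounds plus 3 SD, set per screening campaign (cut at about 17% in these data); inactive = the rest.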

By UniProt entry, the sequences of proteins in these tests, tags left out.
UniProt P14735, whole entry, looked up: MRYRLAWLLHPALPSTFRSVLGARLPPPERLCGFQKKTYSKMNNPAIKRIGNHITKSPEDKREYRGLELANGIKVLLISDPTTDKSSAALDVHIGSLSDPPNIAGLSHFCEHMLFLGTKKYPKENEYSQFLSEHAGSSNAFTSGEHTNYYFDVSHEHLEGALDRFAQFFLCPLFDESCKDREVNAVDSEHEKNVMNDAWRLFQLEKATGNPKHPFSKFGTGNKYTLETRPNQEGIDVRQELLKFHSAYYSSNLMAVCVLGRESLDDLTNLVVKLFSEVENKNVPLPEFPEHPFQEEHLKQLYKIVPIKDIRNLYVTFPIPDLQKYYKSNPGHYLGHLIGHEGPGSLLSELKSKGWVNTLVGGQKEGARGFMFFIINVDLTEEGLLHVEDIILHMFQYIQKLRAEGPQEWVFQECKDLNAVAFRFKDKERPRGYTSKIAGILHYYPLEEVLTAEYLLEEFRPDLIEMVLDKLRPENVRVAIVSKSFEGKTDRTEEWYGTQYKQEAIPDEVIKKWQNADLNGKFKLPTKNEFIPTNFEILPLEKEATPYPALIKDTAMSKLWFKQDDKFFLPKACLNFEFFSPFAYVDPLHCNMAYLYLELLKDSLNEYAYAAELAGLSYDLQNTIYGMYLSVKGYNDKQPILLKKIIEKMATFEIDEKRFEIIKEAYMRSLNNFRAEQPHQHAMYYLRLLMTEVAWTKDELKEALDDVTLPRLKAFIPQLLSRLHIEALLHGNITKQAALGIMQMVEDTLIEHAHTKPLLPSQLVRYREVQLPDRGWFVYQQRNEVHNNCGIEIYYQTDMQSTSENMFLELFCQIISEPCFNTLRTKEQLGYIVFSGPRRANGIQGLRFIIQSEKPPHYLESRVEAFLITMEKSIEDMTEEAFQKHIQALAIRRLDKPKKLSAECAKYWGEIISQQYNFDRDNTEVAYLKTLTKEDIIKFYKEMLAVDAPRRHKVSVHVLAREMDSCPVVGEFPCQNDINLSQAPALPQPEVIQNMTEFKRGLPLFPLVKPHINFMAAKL

These molecules were tested against Insulin-degrading enzyme (Homo sapiens) (UniProt P14735) (assay: enhanced cellular IDE Abeta cleavage – fluorescence polarization, HEK cells, FAbeta-B substrate, primary screen (AID 493087)). Settings: at 5.96 µM, active compounds read high, 0% vehicle, 100% cell-free pure enzyme wells.

Structure (SMILES)	activation
C[N+]1=C2C=CC=CC=C2SC12C([N+](=O)[O-])=CC([N+](=O)[O-])=C[C-]2[N+](=O)[O-] (configuration not stated)	inactive: -9.13%
CCN(/C(=N/P(=O)(N1CCOCC1)N1CCOCC1)N1CCOCC1)c1ccc(OC)cc1	inactive: -3.59%
CC(C)=N/N=C(\N)N[N+](=O)[O-]	inactive: 3.77%
CN(C)C(=O)OCCc1n(C)cc[n+]1C	inactive: -1.99%
CC1CCN(C(=O)Oc2c(Cl)cc(Cl)c3cccnc23)CC1	inactive: 6.08%
COc1ccc(C2=NCC(CBr)S2)cc1 (configuration not stated)	inactive: 1.95%
CC(=O)N1C2C3N(C(C)=O)C1C1N(C(C)=O)C(C(N1C(C)=O)N3C(C)=O)N2C(C)=O	inactive: 0.19%
O=[N+]([O-])c1cccc2n[nH]nc12	inactive: -2.65%
Cc1ccc(NP(=O)(Oc2ccccc2)Oc2ccccc2)nc1	inactive: 1.26%
O=[N+]([O-])c1cc([N+](=O)[O-])c(CCNc2ccccc2)c([N+](=O)[O-])c1	inactive: 4.73%
CCc1nc2c(n1)c1c(non1O)c1c2no[n+]1[O-]	inactive: 1.8%
CC(C)(C)C(=O)NC(Sc1ccncn1)C(Cl)(Cl)Cl (configuration not stated)	inactive: -7.29%
O=[N+]([O-])c1ncn(CCn2ncnc2[N+](=O)[O-])n1	inactive: -0.58%
O=[N+]([O-])c1cccc(NC2=NCC(CBr)S2)c1 (configuration not stated)	inactive: 2.22%
COC(=O)C1(C)COP(=O)(Nc2ccccc2)OC1 (configuration not stated)	inactive: 2.65%
O=C(O)CNc1ccc([As](=O)(O)O)cc1	inactive: 2.99%
O=P1(N(CCCl)CCCl)OCCCS1 (configuration not stated)	inactive: 3.07%
O=C(Nc1cc([As](=O)(O)O)ccc1O)c1ccccc1	inactive: 4.29%
O=[N+]([O-])c1ncn(CCn2cnc([N+](=O)[O-])n2)n1	inactive: 7.8%

Structure (SMILES)	activation
CC(=O)NC(SC(=S)N(C)C)C(Cl)(Cl)Cl (configuration not stated)	inactive: 1.52%
O=[N+]([O-])c1ccc(O)c(/C=N/Nc2ccc([N+](=O)[O-])cc2[N+](=O)[O-])c1	inactive: -2.3%
O=[As](O)(c1ccccc1)c1ccc(O)cc1	inactive: 4.63%
Nc1ccc([As](=O)(O)c2ccc([N+](=O)[O-])cc2)cc1	inactive: -5.07%
C(Cc1nn[nH]n1)Cc1nn[nH]n1	inactive: 5.39%
O=C(OC1CN2CCC1CC2)c1cccc(Cl)c1 (configuration not stated)	inactive: 1.17%
COc1ccc(N)c([N+](=O)[O-])c1[N+](=O)[O-]	inactive: 1.14%
CN(C)C1(CNC(=O)c2ccc(Cl)c(S(N)(=O)=O)c2)CCCCC1	inactive: 2.38%
O=P(Nc1ccccn1)(c1ccc(Br)cc1)c1ccc(Br)cc1	inactive: 0.64%
O=P(Nc1nc2ccccc2s1)(c1ccccc1)c1ccccc1	inactive: 2.75%
C[C@H]1OP(=O)(Oc2ccccc2)[C@H](O)[C@H](O)[C@H]1N=[N+]=[N-] (some centres not stated)	inactive: 1.98%
O=P(Nc1nccs1)(c1ccccc1)c1ccccc1	inactive: 2.9%
CC(C)C(=O)NC(Sc1ccccc1)C(Cl)(Cl)Cl (configuration not stated)	inactive: 0.72%
c1nnnn1CCn1cnnn1	inactive: -3.56%
N#C/C(=C\c1ccc(N(CCBr)CCBr)cc1)C(N)=O	inactive: -1.87%
CC(=O)c1ccc(N2CC2c2ccncc2)cc1 (configuration not stated)	inactive: 0.05%
COC(=O)C1(C)COP(=O)(NCc2ccccc2)OC1 (configuration not stated)	inactive: 4.1%
Cc1ccccc1CN(C)C(=O)COC(=O)C(O)(c1ccccc1)c1ccccc1	inactive: 2.28%
C[C@@H]1C=CCP(=O)(Oc2ccccc2)O1 (some centres not stated)	inactive: 1.27%

Structure (SMILES)	activation
C[C@H]1OP(=O)(Oc2ccccc2)C[C@@H]2O[C@@H]21 (some centres not stated)	inactive: 1.08%
CC(=O)Nc1ccc([As](=O)(O)O)c(O)c1	inactive: 5.67%
CC(=O)Nc1ccc(Oc2c([N+](=O)[O-])cc([N+](=O)[O-])cc2[N+](=O)[O-])cc1	inactive: 1.61%
O=P1(Nc2nc3ccc(Cl)cc3s2)COc2ccccc2O1 (configuration not stated)	inactive: 0.47%
CCOc1ccc(C2=NCC(CBr)S2)cc1 (configuration not stated)	inactive: -0.63%
CCc1cc(O)c([N+](=O)[O-])c(C)c1[N+](=O)[O-]	inactive: 1.58%
CC(C)(C)C(=O)NC(Sc1ccccc1)C(Cl)(Cl)Cl (configuration not stated)	inactive: 4.56%
COC(=O)c1cc2c(s1)N=C(c1ccccc1)N(C)P2(=O)N1CCOCC1 (configuration not stated)	inactive: 3.51%
Cc1ccc(OP(=O)(Nc2ccccn2)Oc2ccc(C)cc2)cc1	inactive: 1.92%
CC(=O)NC(SC(=S)N(CC(C)C)CC(C)C)C(Cl)(Cl)Cl (configuration not stated)	inactive: -0.52%
O=C(OC1CN2CCC1CC2)c1ccccc1 (configuration not stated)	inactive: 5.28%
CCC(=O)N1C2C3N(C(=O)CC)C1C1N(C(=O)CC)C(C(N1C(=O)CC)N3C(=O)CC)N2C(=O)CC	inactive: 0.82%
Cc1ccccc1OP(=O)(Nc1ccccn1)Oc1ccccc1C	inactive: 6.81%
CC(NC(=O)COC(=O)C(O)(c1ccccc1)c1ccccc1)c1ccccc1 (configuration not stated)	inactive: -1.03%
CN(C)C(=O)Oc1noc2ccccc12	inactive: 3.41%
O=c1c2cc([N+](=O)[O-])ccc2[nH]c2c([N+](=O)[O-])cc([N+](=O)[O-])cc12	inactive: 5%
O=C(NC1CCS(=O)(=O)C1)NP(=S)(Oc1ccccc1)Oc1ccccc1 (configuration not stated)	inactive: 6.28%
CCNC(=S)/N=C(\N)N[N+](=O)[O-]	inactive: -0.65%
O=P1(N(CCCl)CCCl)OCCC2CCCCN21 (configuration not stated)	inactive: -1.07%
